Literature values in US20230310628A1, “Multi-Targeted Multi-Valent Ligand Drug Particles for the Treatment and Prevention of Diseases and Conditions” (priority 2017, published 2023).

System: EGFR-overexpressing human breast cancer cells
Conditions: anti-EGFR immunoliposomes; cited from earlier work

In the case of “cetuximab-Fab′: Fab′ derived from cetuximab”, the “surface valency of conjugated ligands at plateau of cell binding and internalization” value is given as 30-40 /liposome.
